# Measured values taken from PubChem BioAssay AID1347041 (National Center for Advancing Translational Sciences (NCATS), 2019).
# Several values for one entry are separate records, joined by “and”; a condition that tells them apart may be missing. Equal values may be shown once. The list shows a part of the results, in another mix than the full data. Activity calls are given as the source filed them. No stated cut-off is given here; in the data, active means activity change below about -30%; inconclusive means mostly about -25% to -30%; inactive means weaker than that.
# Biological target: L-lactate dehydrogenase A chain (Homo sapiens) (UniProt P00338)
# Assay: qHTS assay for inhibitors of human lactate dehydrogenase;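 further: values are at about 110 or 230 µM; plate controls were DMSO wells for no effect and wells without enzyme for full effect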
# Conditions: purified LDHA, NADH/diaphorase-resazurin fluorescence; active compounds read low
# Summary of the method: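 Remaining NADH was detected by diaphorase (0.133 mg/mL) converting 37 µM resazurin to fluorescent resorufin, read at 0 and 20 minutes. The preceding 5-minute room-temperature reaction used 2 nM LDHA, 0.2 mM sodium pyruvate and 0.06 mM NADH at pH 7.4.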
row,SMILES,activity change
1,CC1C(=O)CCN(CCc2ccccc2)C1C (stereo not given),inactive: 4.24%
2,CC(C)(C)OC(=O)N1CCC(N(C(=O)c2ccccc2)c2ccc(Cl)cc2)CC1,inactive: 3.29%
3,O=C(NCC1(N2CCOCC2)CCCCC1)c1ccc([N+](=O)[O-])cc1,inactive: 0.471%
4,N#Cc1ccc(C(=O)NCC2(N3CCCCC3)CCCCC2)cc1,inactive: 0.795%
5,O=C(NCC1(N2CCOCC2)CCCCC1)c1ccccc1[N+](=O)[O-],inactive: 7.32%
6,CCCCn1nnnc1C(c1cccc(OC)c1OC)N1CCC(n2c(=O)[nH]c3ccccc32)CC1 (stereo not given),inactive: -5%
7,Fc1ccc(CN2CCC(Nc3ccc(Br)cc3)CC2)cc1,inactive: 5.42%
8,O=c1[nH]c2ccccc2n1C1CCN(C(c2cccs2)c2nnnn2C2CCCC2)CC1 (stereo not given),inactive: -4.85%
9,O=C(O)c1cccc(Nc2c([N+](=O)[O-])cc([N+](=O)[O-])cc2[N+](=O)[O-])c1,inactive: 2.61%
10,CCc1cc(C(=O)NCC2(N3CCCCC3)CCCCC2)sc1C,inactive: 0.321%
11,O=C(OC1CN2CCC1CC2)C1c2ccccc2C=Cc2ccccc21 (stereo not given),inactive: -0.0881%
12,N/C(=N\O)c1c(N)no[n+]1[O-],inactive: -6.59%
13,Cn1nc(C(=O)NCC2(N3CCOCC3)CCCCC2)c2ccccc2c1=O,inactive: 0.351%
14,CCOC(=O)N1CCC(Nc2ccc(C)cc2)CC1,inactive: 0.3%
15,Cc1cc(NC2CCN(Cc3ccccc3)CC2)ccc1Br,inactive: -0.159%
16,COc1cccc(C(c2nnnn2C(C)(C)C)N2CCC(n3c(=O)[nH]c4ccccc43)CC2)c1OC (stereo not given),inactive: -6.38%
17,O=C(NCC1(N2CCCCC2)CCCCC1)c1n[nH]c(=O)c2ccccc12,inactive: -15.8%
18,O=c1[nH]c2ccccc2n1C1CCN(C(c2ccnc3ccccc23)c2nnnn2C2CCCC2)CC1 (stereo not given),inactive: -7.84%
19,COc1ccc(C(=O)NCC2(N3CCOCC3)CCCCC2)cc1OC,inactive: 0.144%
20,O=Cc1ccc(N(CCCl)CCCl)cc1,inactive: -0.112%
21,O=c1[nH]c2ccccc2n1C1CCN(C(c2cccs2)c2nnnn2C2CCCCC2)CC1 (stereo not given),inactive: -7.6%
22,O=C(NCC1(N2CCOCC2)CCCCC1)c1n[nH]c(=O)c2ccccc12,inactive: 0.513%

row,SMILES,activity change
1,O=C(NCC1(N2CCOCC2)CCCCC1)c1cc(Br)ccc1Cl,inactive: -0.574%
2,COc1cc(C(=O)NCC2(N3CCOCC3)CCCCC2)cc(OC)c1C,inactive: 0.281%
3,CCCCn1nnnc1C(c1ccccc1)N1CCC(n2c(=O)[nH]c3ccccc32)CC1 (stereo not given),inactive: -1.54%
4,CN1CCC(Nc2ccc(Cl)cc2)CC1,inactive: -0.701%
5,CCC(CO)(C(=O)OC1CN2CCC1CC2)c1ccccc1 (stereo not given),inactive: -8.73%
6,COc1cc(OC)cc(C(=O)NCC2(N3CCOCC3)CCCCC2)c1,inactive: -5.57%
7,COc1cccc(C(c2nnnn2C2CCCC2)N2CCC(n3c(=O)[nH]c4ccccc43)CC2)c1OC (stereo not given),inactive: -8.25%
8,COc1cc(C(=O)NCC2(N3CCOCC3)CCCCC2)cc(OC)c1OC,inactive: 0.29%
9,COc1cccc(C(=O)N(c2cc(C)cc(C)c2)C2CCN(C(=O)OC(C)(C)C)CC2)c1,inactive: 7.93%
10,O=c1[nH]c2ccccc2n1C1CCN(C(c2cc3ccccc3o2)c2nnnn2C2CCCC2)CC1 (stereo not given),inactive: -2.64%
11,CCCOc1ccc(C(=O)NCC2(N(C)C)CCCCC2)cc1,inactive: -0.759% and inactive: 0.493%
12,ClCCN(CCCl)c1ccccc1,inactive: 2.22%
13,O=C(O)C1(Nc2ccccc2)CCN(Cc2ccccc2)CC1,inactive: -4.05%
14,NN(c1ccccc1)C1CCN(CCc2ccccc2)CC1,inactive: 8.01%
15,ClCCN(CCCl)c1ccc(C=C2C=CC=C2)cc1,inactive: 7.64%
16,CC(C)(C)OC(=O)N1CCC(Nc2ccccc2)CC1,inactive: -3.23%
17,CCCOc1ccccc1C(=O)NCC1(N(C)C)CCCCC1,inactive: 8.29%
18,CN1CCC(Nc2ccc(F)c(Cl)c2)CC1,inactive: -2.86%
19,CCOc1ncccc1C(=O)NCC1(N2CCOCC2)CCCCC1,inactive: -5.34%
20,Cc1ccc2oc(C(=O)NCC3(N4CCCCC4)CCCCC3)cc(=O)c2c1,inactive: -0.828%
21,CN(C)c1ccc(C(=O)NCC2(N3CCCCC3)CCCCC2)cc1,inactive: -7.89%
22,CC1CN(CCc2ccccc2)C(C)CC1=O (stereo not given),inactive: -10.6%

row,SMILES,activity change
1,Cn1c(=O)[nH]cc(N(CCCl)CCCl)c1=O,inactive: -3.77%
2,O=C(NCC1(N2CCCCC2)CCCCC1)c1ccco1,inactive: -1.27%
3,CC(C)(C)c1ccc(C(=O)NCC2(N3CCOCC3)CCCCC2)cc1,inactive: -2.45%
4,Clc1ccccc1CN1CCC(Nc2ccc(Br)cc2)CC1,inactive: 13.9%
5,Cc1ccccc1C(=O)NCC1(N(C)C)CCCCC1,inactive: -5.71%
6,CCN1CCC(Nc2cccc(F)c2)CC1,inactive: -6.96%
7,COc1ccc(C(c2nnnn2C2CCCCC2)N2CCC(n3c(=O)[nH]c4ccccc43)CC2)cc1 (stereo not given),inactive: 0.385%
8,CC(C)(C)n1nnnc1C(c1ccnc2ccccc12)N1CCC(n2c(=O)[nH]c3ccccc32)CC1 (stereo not given),inactive: -3.43%
9,Cn1cc(C(=O)NCC2(N3CCOCC3)CCCCC2)c2ccccc21,inactive: -5.56%
10,Cc1ccccc1NC1(C#N)CCN(Cc2ccccc2)CC1,inactive: -3.14%
11,Cc1ccc(NC2(C#N)CCN(Cc3ccccc3)CC2)cc1,inactive: -2.98%
12,Fc1ccccc1NC1CCN(Cc2ccccc2)CC1,inactive: -3.35%
13,Cc1ccc(Nc2c([N+](=O)[O-])cc([N+](=O)[O-])cc2[N+](=O)[O-])cc1,inactive: 3.03%
14,Cc1ccc(C(=O)NCC2(N3CCCCC3)CCCCC2)o1,inactive: 0.553%
15,COc1cc(OC)cc(C(=O)NCC2(N3CCCCC3)CCCCC2)c1,inactive: -4.65%
16,O=c1[nH]c2ccccc2n1C1CCN(C(c2ccnc3ccccc23)c2nnnn2C2CCCCC2)CC1 (stereo not given),inactive: -7.62%
17,CN(C)C1(CNC(=O)c2cc3c(s2)CCC3)CCCCC1,inactive: 4.19%
18,CCC(c1nnnn1C1CCCCC1)N1CCC(n2c(=O)[nH]c3ccccc32)CC1 (stereo not given),inactive: -3.91%
19,CN(C)C1(CNC(=O)c2ccc(C(C)(C)C)cc2)CCCCC1,inactive: 1.5%
20,COc1cccc(C(c2nnnn2C2CCCCC2)N2CCC(n3c(=O)[nH]c4ccccc43)CC2)c1OC (stereo not given),inactive: -4.68%
21,CC(=O)N(c1ccccc1)C1CCNCC1,inactive: -12.1%
